Test results published in PubChem BioAssay AID576 (NMMLSC, 2007).
The list shows a part of the results, in another mix than the full data. Active and inactive are the calls of the source.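 The calls were made as follows: active = fluorescence ratio above 2.44, which is 1 plus 3 SD of all ratios; inconclusive = signal too bright to measure linearly, ratio around 10 or more; inactive = fluorescence ratio below 2.44.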

Experiment: compound autofluorescence on Jurkat cells, primary screen, artefact control for VLA-4 allosteric ligand project, cell-based, flow cytometry (AID 576);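 also: green fluorescence of cells measured with 488 nm excitation and 530 nm emission; tested at 10 µM compound in the well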
Conditions: hits give high values, 1 = vehicle-only cell background

Row | Structure (SMILES) | fluorescence ratio
1 | CCc1nc2c(n1)c1c(non1O)c1c2no[n+]1[O-] | inactive: 2
2 | O=P(Nc1nccs1)(c1ccccc1)c1ccccc1 | inactive: 1.08
3 | Cc1nn(-c2ccccc2)c2c1P(=O)(N1CCOCC1)N(C)C(c1ccccc1)=N2 (configuration not stated) | inactive: 1.1
4 | Clc1n[nH]nc1-c1nn[nH][15n]1 | inactive: 1.04
5 | CCOP1(=S)c2c(C)nn(CCC#N)c2N=C(c2ccccc2F)N1C (configuration not stated) | inactive: 0.91
6 | COP1(=S)c2c(C)nn(CCC#N)c2N=C(c2ccc(F)cc2)N1C (configuration not stated) | inactive: 1.03
7 | O=C(COc1ccccc1)OC1CN2CCC1CC2 (configuration not stated) | inactive: 1.06
